{"source": "patent US7173005", "about": "(dated 2007)", "target": "human IGF-1 receptor (IGF-1R) (human, UniProt P08069)", "test": "competition, TR-FRET vs b-20E2"}
{"binder": "GGTVWPGYEWLRNA", "note": "[E8 (D120)]", "values": [{"measurement": "IC50", "result": 175, "unit": "nM"}]}
